Assay outcomes (PubChem)
Sampled rows, rich in hits. Any-hit rate of the full collection: about 4.2%.
ALR H2O2 inh: human ALR oxidase inhibition via reduced H2O2; purified ALR, DTT oxidation, H2O2 HRP-luminol luminescence; P55789; 290,000 tested, 3.8% active; AID 485317; inhibition, % (no concentration beside the values);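 active means mean and each replicate at 75% or more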;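 further: stock transfer was 7.5 nL into about 7.5 µL; 0% = neutral wells and 100% = wells with inactivated enzyme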
MC4R antag cAMP: human MC4R antagonism in cAMP assay; inhibition, % at 6.5 µM; MC4R-expressing cells, MTII-stimulated cAMP, LANCE TR-FRET; AID 540295; actives 0.48% (n = 360,000); P32245;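 active = inhibition above its plate's cutoff, the mean of tested wells on that plate plus 3 SD, cut at about 29% in these data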;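 note: 0% = Melanotan II alone and 100% = Melanotan II plus saturating MCL0020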
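Assay system: U2OS cells stably expressing human melanocortin 4 receptor (MC4R) / Dosing: 6.5 µM / Timing: compound 30 min, challenge 1 h, detection 1 h / Measured by: Eu-cAMP/anti-cAMP TR-FRET, emission 671 nm / Replicates: singlicate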
NALP1 yeast inh: NALP1 inhibition. inhibition, % at 10 µM. actives 0.61% (n = 280,000). S. cerevisiae NALP1/ASC/caspase-1 growth, X-gal OD620, 72 h; in the data active = inhibition mostly above about 24%, no sharp cut-off; inactive = mostly below about 32%
UUG fidelity: modulators of start codon recognition fidelity in yeast; S. cerevisiae UUG-firefly luciferase reporter, luminescence/redox ratio; AID 602363; 350,000 tested, 0.13% active; activity score, % at 18.7 µM;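 active = replicate mean at a twofold rise or more, about +100% in these data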;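 also: firefly luciferase made from a UUG start codon reports start codon fidelity; reporter light over untreated wells divided by growth signal over untreated wells; some hits fall short of that in this replicate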
HDAC3 inhib: inhibitors of human histone deacetylase 3; recombinant HDAC3, fluorogenic peptide/trypsin coupled, fluorescence; inhibition, % at 8.3 µM; actives 0.15% (n = 320,000); AID 2718; in the data active = inhibition above about 26%, passing the limit was not always enough
MC4R ag barr: agonists of human melanocortin 4 receptor (MC4R) beta-arrestin; P32245; U2OS MC4R beta-arrestin complementation, luminescence; percent of melanotan II response, DMSO zero; activation, % at 8.9 µM; actives 0.98% (n = 360,000); AID 540308;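 active = activation above a per-plate cutoff, the mean activation of sample wells on that plate plus 3 SD, cut at about 8% in these data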
MC4R barr conf: human MC4R beta-arrestin agonism confirmation; shares compounds with MC4R ag barr; U2OS MC4R beta-arrestin recruitment, luminescence; scaled DMSO 0%, Melanotan II 100%; activation, % at 8.9 µM; actives 31% (n = 2,400); AID 602192;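 active = mean activation across replicates above the hit cutoff set in the earlier primary screen, cut at about 8% in these data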
MOR-DOR barr ag: activates mu-delta opioid heterodimer, MC4R agonist counter-screen | shares compounds with MC4R ag barr | U2OS PathHunter beta-arrestin, beta-gal luminescence; percent of deltorphin B response, DMSO zero | activation, % at 9.2 µM | actives 5.8% (n = 2,400) | AID 602194;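 active = mean activation across replicates exceeds the hit threshold derived in the earlier primary screen, cut at about 18% in these data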;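 note: 100% = deltorphin B at 0.9 µM final and 0% = DMSO alone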
The depositor's hits bear a star; · = not tested or not shown.

Letters – A = ALR H2O2 inh; B = MC4R antag cAMP; C = NALP1 yeast inh; D = UUG fidelity; E = HDAC3 inhib; F = MC4R ag barr; G = MC4R barr conf; H = MOR-DOR barr ag
(1) CNC(=O)CSc1ncnc2c1cnn2-c1ccccc1
  A: -3 | B: 4 | C: 14 | D: · | E: 5 | F: 0 | G: · | H: ·

(2) O=C(CSc1ncnc2c1cnn2-c1ccccc1)Nc1ccccc1
  A: -9 | B: 14 | C: 1 | D: -7 | E: -15 | F: 18* | G: 5 | H: 5

(3) Cc1ccc(C(=O)N/N=C\c2ccc(-c3ccc(Cl)c(Cl)c3)o2)cn1
  A: -16 | B: -7 | C: 42 | D: -33 | E: 5 | F: 11* | G: 8.4* | H: 6

(4) Cc1ccc(C(=O)N/N=C/c2ccc(-c3cccc(Cl)c3)o2)cn1
  A: · | B: 1 | C: -5 | D: · | E: -3 | F: -3 | G: · | H: ·

(5) COc1ccc(NC(=O)c2cc(-c3ccc(C)cc3O)n[nH]2)c(OC)c1
  A: -1 | B: 15 | C: 11 | D: -16 | E: -6 | F: 10* | G: -2 | H: 4

(6) COc1ccc(NC(=O)c2cc(-c3cc(Cl)ccc3OC)n[nH]2)cc1OC
  A: · | B: 16 | C: · | D: -22 | E: · | F: 0 | G: · | H: ·

(7) COc1ccc(Cl)cc1-c1cc(C(=O)Nc2ccc(F)cc2)[nH]n1
  A: · | B: 2 | C: · | D: -23 | E: · | F: 16* | G: 0 | H: 9

(8) CCCOc1ccc(F)cc1-c1cc(C(=O)Nc2cc(OC)ccc2OC)[nH]n1
  A: · | B: 5 | C: · | D: -16 | E: · | F: 16* | G: 1 | H: 11

(9) COc1ccc(NC(=O)c2cc(-c3ccc(F)cc3OC(C)C)n[nH]2)c(OC)c1
  A: · | B: 4 | C: · | D: -29 | E: · | F: -1 | G: · | H: ·

(10) CCCOc1ccc(F)cc1-c1cc(C(=O)Nc2cc(OC)c(OC)c(OC)c2)[nH]n1
  A: · | B: 7 | C: · | D: -4 | E: · | F: 3 | G: · | H: ·

In another format: entries from further up.
cpd	Molecule	ALR H2O2 inh	MC4R antag cAMP	NALP1 yeast inh	UUG fidelity	HDAC3 inhib	MC4R ag barr	MC4R barr conf	MOR-DOR barr ag
3	Cc1ccc(C(=O)N/N=C\c2ccc(-c3ccc(Cl)c(Cl)c3)o2)cn1	-16	-7	42	-33	5	11*	8.4*	6
9	COc1ccc(NC(=O)c2cc(-c3ccc(F)cc3OC(C)C)n[nH]2)c(OC)c1	·	4	·	-29	·	-1	·	·

The list goes on.
Letters – A = ALR H2O2 inh; B = MC4R antag cAMP; C = NALP1 yeast inh; D = UUG fidelity; E = HDAC3 inhib; F = MC4R ag barr; G = MC4R barr conf; H = MOR-DOR barr ag
(11) COCC(=O)NC[C@@H]1[C@H](c2ccc(C3=CCCC3)cc2)[C@@H](CO)N1C(C)=O
  A: · | B: · | C: · | D: -1 | E: · | F: · | G: · | H: ·

(12) Cc1ccc(-c2csc(NC(=O)CSc3ncn(-c4ccccc4)n3)n2)cc1
  A: · | B: -3 | C: -1 | D: -8 | E: 6 | F: 11* | G: 5 | H: 5

(13) O=C(CSc1ncn(-c2ccccc2)n1)Nc1nc(-c2ccccc2)cs1
  A: -3 | B: 7 | C: 1 | D: -11 | E: -2 | F: 6 | G: · | H: ·

(14) Cc1ccc(C(=O)NCCc2nnc(SCC(=O)Nc3nc(-c4ccccc4)cs3)n2C)cc1
  A: 4 | B: -4 | C: 3 | D: -12 | E: -6 | F: 21* | G: 8.9* | H: 3

(15) O=C(CSc1ccccc1)Nc1nccs1
  A: -4 | B: 4 | C: 13 | D: · | E: -50 | F: -1 | G: · | H: ·

(16) O=C(CSc1nc(-c2ccccc2)cs1)Nc1nccs1
  A: -2 | B: -5 | C: 18 | D: · | E: 5 | F: 19* | G: 0 | H: 9

(17) CO[C@@H]1CN(C)C(=O)c2ccc(NC(=O)C3CC3)cc2OC[C@H](C)N(C(=O)c2cnccn2)C[C@H]1C
  A: · | B: · | C: · | D: 0 | E: · | F: · | G: · | H: ·

(18) COc1ccc(CC(=O)OCc2cc3cccc(C)c3[nH]c2=O)cc1
  A: 2 | B: 9 | C: -2 | D: 7 | E: -4 | F: 21* | G: 8 | H: 5

(19) COc1ccc(C(=O)OCc2cc3cccc(C)c3[nH]c2=O)cc1
  A: -1 | B: 5 | C: 15 | D: 3 | E: -2 | F: 15* | G: 2 | H: 14

(20) Cc1cccc2cc(COC(=O)c3cccc([N+](=O)[O-])c3)c(=O)[nH]c12
  A: -2 | B: · | C: 28 | D: · | E: 0 | F: · | G: · | H: ·

Additional records
Letters – A = ALR H2O2 inh; B = MC4R antag cAMP; C = NALP1 yeast inh; D = UUG fidelity; E = HDAC3 inhib; F = MC4R ag barr; G = MC4R barr conf; H = MOR-DOR barr ag
(21) CO[C@@H]1CN(C)C(=O)c2ccc(NC(=O)c3ccccc3)cc2OC[C@@H](C)N(CC2CC2)C[C@@H]1C
  A: · | B: · | C: · | D: 1 | E: · | F: · | G: · | H: ·

(22) COc1ccc(Cn2c(C)nc3c(c2=O)c2nc4ccccc4nc2n3Cc2ccco2)cc1
  A: · | B: 19 | C: · | D: 4 | E: · | F: 11* | G: -3 | H: 2

(23) C[C@@H]1CN([C@@H](C)CO)C(=O)c2cc(NS(C)(=O)=O)ccc2O[C@H]1CN(C)Cc1ccc(C(=O)Nc2ccccc2N)cc1
  A: · | B: · | C: · | D: 9 | E: · | F: · | G: · | H: ·

(24) Cc1nn(-c2ccccc2)nc1C(=O)Nc1ccc2[nH]ncc2c1
  A: -21 | B: 7 | C: 14 | D: -29 | E: · | F: 23* | G: 13* | H: 5

(25) c1ccc(-c2sc3ccccc3c2-c2ccc(OCCN3CCCCC3)cc2)cc1
  A: 0 | B: 7 | C: · | D: -6 | E: -13 | F: 1 | G: · | H: ·

(26) CN(C)CCOc1ccc(-c2c(-c3ccccc3)sc3ccccc23)cc1
  A: -11 | B: 15 | C: · | D: -29 | E: 7 | F: 23* | G: 38* | H: 17

(27) COc1ccccc1-c1cn(CC[C@@H]2CC[C@H](NC(=O)C3CCCCC3)[C@H](CO)O2)nn1
  A: · | B: · | C: · | D: -15 | E: · | F: · | G: · | H: ·
